The text below walks through data of article PMC4079689, “HIV Treatments Reduce Malaria Liver Stage Burden in a Non-Human Primate Model of Malaria Infection at Clinically Relevant Concentrations In Vivo” (PLoS ONE, 2014).

Like-named read-outs stand apart in the source and are kept apart here.

Data set [1] is described as follows: Pharmacokinetic study, single dose by gavage, plasma HPLC-MS/MS. As to conditions: dosing regimen LPV-RTV+TMP-SMX.
On the set-up of data set [2]: method as in Ibarra et al. Eur J Pharm Sci. 2012;46(5):516–21. To be noted: human historical data, LPV-RTV; ref Ibarra et al. Eur J Pharm Sci. 2012;46(5):516–21; cited from earlier work.

Regarding `CC(C)c1nc(CN(C)C(=O)N[C@H](C(=O)N[C@@H](Cc2ccccc2)C[C@H](O)[C@H](Cc2ccccc2)NC(=O)OCc2cncs2)C(C)C)cs1` [Ritonavir], the Cmax is 800 ng/mL in data set [1] (rhesus JMF, sedated, single dose by gavage (LPV-RTV 50 mg/kg; TMP 4 mg/kg + SMX 20 mg/kg)); 3400 ng/mL in data set [1] (rhesus JRH, awake, single dose by gavage); 610 ng/mL in data set [2].
